This is a selection; strong and weak results do not stand in their true shares. Some salts or complexes appear as unconnected parts, following the source record. Active and inactive are the calls of the source. Calls come from the whole dose curve; as a rule, active = well fitted inhibition curve with a large enough effect; inconclusive = small, poorly fitted or top-dose-only effect; inactive = no such curve, though single readings can be large or run the other way.

Protein sequences, listed by entry. Tags and fused reporters are not part of them.
UniProt Q14191, whole entry: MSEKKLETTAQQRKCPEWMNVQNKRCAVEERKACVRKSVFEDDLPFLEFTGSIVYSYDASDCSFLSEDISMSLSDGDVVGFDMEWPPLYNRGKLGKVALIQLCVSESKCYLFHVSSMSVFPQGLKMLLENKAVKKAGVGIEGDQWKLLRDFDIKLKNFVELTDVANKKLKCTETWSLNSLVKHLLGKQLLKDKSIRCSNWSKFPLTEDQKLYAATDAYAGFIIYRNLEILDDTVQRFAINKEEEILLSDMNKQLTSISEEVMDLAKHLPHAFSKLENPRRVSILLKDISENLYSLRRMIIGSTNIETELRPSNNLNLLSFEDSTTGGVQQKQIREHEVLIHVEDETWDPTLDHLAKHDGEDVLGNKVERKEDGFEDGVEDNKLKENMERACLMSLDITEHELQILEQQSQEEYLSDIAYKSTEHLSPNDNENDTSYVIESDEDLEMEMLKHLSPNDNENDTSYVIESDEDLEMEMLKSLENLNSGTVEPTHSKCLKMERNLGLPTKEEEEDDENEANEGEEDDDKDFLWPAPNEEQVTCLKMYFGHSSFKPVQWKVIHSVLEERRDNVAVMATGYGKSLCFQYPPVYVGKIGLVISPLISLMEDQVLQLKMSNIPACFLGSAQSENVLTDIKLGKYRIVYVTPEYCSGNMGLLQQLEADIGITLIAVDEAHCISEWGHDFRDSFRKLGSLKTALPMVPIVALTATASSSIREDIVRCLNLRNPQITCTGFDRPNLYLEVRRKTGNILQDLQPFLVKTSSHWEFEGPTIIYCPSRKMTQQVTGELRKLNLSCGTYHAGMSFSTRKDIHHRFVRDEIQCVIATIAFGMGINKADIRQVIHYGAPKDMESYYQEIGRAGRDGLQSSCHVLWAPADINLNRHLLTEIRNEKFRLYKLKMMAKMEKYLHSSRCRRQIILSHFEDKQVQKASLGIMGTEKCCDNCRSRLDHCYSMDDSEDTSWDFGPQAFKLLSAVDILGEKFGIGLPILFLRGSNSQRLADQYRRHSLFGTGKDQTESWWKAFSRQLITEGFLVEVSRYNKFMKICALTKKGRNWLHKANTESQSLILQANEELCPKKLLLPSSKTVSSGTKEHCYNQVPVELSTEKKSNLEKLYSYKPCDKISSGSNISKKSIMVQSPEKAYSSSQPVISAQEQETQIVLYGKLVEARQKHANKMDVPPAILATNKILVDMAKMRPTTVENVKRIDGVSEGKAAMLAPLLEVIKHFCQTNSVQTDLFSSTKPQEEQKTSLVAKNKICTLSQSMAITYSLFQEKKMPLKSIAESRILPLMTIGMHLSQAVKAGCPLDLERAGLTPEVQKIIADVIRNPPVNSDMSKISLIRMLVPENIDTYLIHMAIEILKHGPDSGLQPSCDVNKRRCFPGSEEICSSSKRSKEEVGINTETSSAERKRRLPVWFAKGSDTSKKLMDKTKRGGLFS

58 compounds from PubChem BioAssay AID651768 (National Center for Advancing Translational Sciences (NCATS), 2012) can be followed below.
% is set by controls: 0 for no effect and ±100 for the full control effect.

This assay deals with Bifunctional 3'-5' exonuclease/ATP-dependent helicase WRN (Homo sapiens) (UniProt Q14191). In words: qHTS for Inhibitors of WRN Helicase. Note: nearly all actives have a fitted effect of over 55% in size. The following applies: WRN helicase unwinding, fluorescent forked duplex, kinetic; at 114 µM (top of the series) unless noted. In a few lines:
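Kinetic fluorescence helicase assay: unwinding of a quenched forked DNA duplex (100 nM final) with 2 mM ATP final raises red fluorescence (525/598 nm). Compounds sat 15 min at room temperature with 20 nM WRN beforehand.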
A general note: Quantitative high-throughput screening tests each substance at several concentrations.
On to `CCOC(=O)N1CCC(Nc2cccc(C)c2)CC1`, for which the activity change, negative = inhibition is inactive: 1.66%.
In the case of `COc1cc(C(=O)NCC2(N(C)C)CCCCC2)ccc1OC(F)F`, the activity change, negative = inhibition is inactive: 18.2%.
For the compound `O=c1[nH]c2ccccc2n1C1CCN(C(c2cccc3ccccc23)c2nnnn2C2CCCC2)CC1` (stereo not drawn), the activity change, negative = inhibition is inactive: -6.69%.
On to `O=c1[nH]c2ccccc2n1C1CCN(C(c2ccccc2)c2nnnn2C2CCCCC2)CC1` (stereo not drawn), for which the activity change, negative = inhibition was inactive: -7.01%.
To `Cc1cccc(NC2(C#N)CCN(Cc3ccccc3)CC2)c1` belongs inactive: 9.58%; to `CSc1ccccc1C(=O)NCC1(N2CCCCC2)CCCCC1`, inactive: -6.42%; to `CC(C)(C)OC(=O)N1CCC(N(C(=O)c2ccccc2)c2ccc(F)cc2)CC1`, inactive: -2.16%.
Under `COc1ccc(C(=O)NCC2(N3CCCCC3)CCCCC2)c(OC)c1OC` stands inactive: 0.275%; under `CCC(c1nnnn1C1CCCC1)N1CCC(n2c(=O)[nH]c3ccccc32)CC1` (stereo not drawn), inactive: -6.21%; under `COc1ccc(C(=O)NCC2(N3CCCCC3)CCCCC2)cc1`, inactive: 6.43%.
Consider `O=C(NCC1(N2CCCCC2)CCCCC1)c1cccs1`, for which the activity change, negative = inhibition was inactive: -27%.
Under `CCCCn1nnnc1C(CC)N1CCC(n2c(=O)[nH]c3ccccc32)CC1` (stereo not drawn) stands inactive: -0.789%.
Under `CCCCn1nnnc1C(c1cccs1)N1CCC(n2c(=O)[nH]c3ccccc32)CC1` (stereo not drawn) stands inactive: -1.61%; under `O=C(NCC1(N2CCCCC2)CCCCC1)c1ccc(=O)[nH]c1`, inactive: 9.26%.
To `COc1ccc(Cl)cc1C(=O)NCC1(N2CCOCC2)CCCCC1` belongs inactive: -4.02%; to `N#CC1(Nc2ccccc2)CCN(Cc2ccccc2)CC1`, inactive: 0.776%; to `O=C(NCC1(N2CCCCC2)CCCCC1)c1ccc(Cl)s1`, inactive: 3.38%.
Turning to `O=c1[nH]c2ccccc2n1C1CCN(C(c2cc3ccccc3o2)c2nnnn2C2CCCCC2)CC1` (stereo not drawn), the activity change, negative = inhibition was inactive: -2.57%.
With `O=C(OC1CN2CCC1CC2)C1c2ccccc2Oc2ccccc21` (stereo not drawn), the activity change, negative = inhibition is inactive: -0.612%.
With `CCCCn1nnnc1C(c1ccc(OC)cc1)N1CCC(n2c(=O)[nH]c3ccccc32)CC1` (stereo not drawn), the activity change, negative = inhibition is inactive: 0.814%.
With `CCOC(=O)N1CCC(Nc2ccc(OC)cc2)CC1`, the activity change, negative = inhibition is inactive: 2.61%.
Under `Cc1cc(C)cc(N(C(=O)c2ccccc2)C2CCN(C(=O)OC(C)(C)C)CC2)c1` stands inactive: 0.57%.
To `O=C(NCC1(N2CCCCC2)CCCCC1)c1ccc(Cl)nc1` belongs inactive: -3.36%; to `O=c1[nH]c2ccccc2n1C1CCN(C(c2ccccc2OC(F)(F)F)c2nnnn2C2CCCCC2)CC1` (stereo not drawn), inactive: -4.88%; to `O=C(NCC1(N2CCOCC2)CCCCC1)c1cc2ccccc2o1`, inactive: -6.67%.
For `CCN(CC)CCCNc1ccccc1[N+](=O)[O-].O=[N+]([O-])c1cc([N+](=O)[O-])c(O)c([N+](=O)[O-])c1`, the activity change, negative = inhibition is inactive: 5.93%.
To `CCC(c1nnnn1C(C)(C)C)N1CCC(n2c(=O)[nH]c3ccccc32)CC1` (stereo not drawn) belongs inactive: -7.13%.
As to `O=C(NCC1(N2CCOCC2)CCCCC1)c1cc(F)c(F)cc1Cl`, the activity change, negative = inhibition is inactive: 2.36%.
Under `COc1cc(OC)c(C(=O)NCC2(N(C)C)CCCCC2)cc1OC` stands inactive: -8.11% [at 57.1 µM].
Under `CCCCn1nnnc1C(c1ccnc2ccccc12)N1CCC(n2c(=O)[nH]c3ccccc32)CC1` (stereo not drawn) stands inactive: 0.26%; under `CC(C)c1ccc(NC2CCN(C(=O)OC(C)(C)C)CC2)cc1`, inactive: -7.22%; under `CCCCn1nnnc1C(c1ccccc1OC(F)(F)F)N1CCC(n2c(=O)[nH]c3ccccc32)CC1` (stereo not drawn), inactive: -11%.
Under `CN(C)c1cccc(C(=O)NCC2(N3CCCCC3)CCCCC2)c1` stands inactive: 4.66%.
For the compound `O=[N+]([O-])c1cc([N+](=O)[O-])c(OC2CCCCC2O)c([N+](=O)[O-])c1` (stereo not drawn), the activity change, negative = inhibition is inactive: -12.9%.
To `COc1ccc(CN(CCCl)CCCl)cc1Cl` belongs inactive: 3.05%; to `COc1ccc(C(c2nnnn2C2CCCC2)N2CCC(n3c(=O)[nH]c4ccccc43)CC2)cc1` (stereo not drawn), inactive: 2.01%; to `O=[N+]([O-])c1cc([N+](=O)[O-])c(Nc2ccc(Cl)cc2)c([N+](=O)[O-])c1`, inactive: -13.1%.
Under `CCCOc1ccc(C(=O)NCC2(N(C)C)CCCCC2)cc1OC` stands inactive: 13.8%.
With `Cc1ccc(C(=O)NCC2(N(C)C)CCCCC2)o1`, the activity change, negative = inhibition is inactive: 4.76%.
Regarding `O=C(OC1CN2CCC1CC2)c1ccc([N+](=O)[O-])cc1` (stereo not drawn), the activity change, negative = inhibition is inactive: -5.61%.
To `CN1CCC(Nc2cccc(F)c2)CC1` belongs inactive: 0.619%.
Under `COc1ccc2c(c1O)-c1c(O)c(OC)cc3c1[C@H](C2)[N+](C)(C)CC3.O=[N+]([O-])c1cc([N+](=O)[O-])c([O-])c([N+](=O)[O-])c1[O-]` stands inactive: -5.19%; under `O=C(NCC1(N2CCCCC2)CCCCC1)c1cncc(Br)c1`, inactive: -18.1%; under `O=c1[nH]c2ccccc2n1C1CCN(C(c2ccccc2OC(F)(F)F)c2nnnn2C2CCCC2)CC1` (stereo not drawn), inactive: -13.3%.
Under `N#CC1(Nc2ccccc2)CCN(CCc2ccccc2)CC1` stands inactive: 8.73%.
With `CCN1CCC(Nc2ccc(Cl)cc2)CC1`, the activity change, negative = inhibition is inactive: 0.827%.
On to `CSc1ccc(C(=O)NCC2(N3CCOCC3)CCCCC2)cc1`, for which the activity change, negative = inhibition is inactive: 18.8%.
Under `O=C(NCC1(N2CCCCC2)CCCCC1)c1cccc([N+](=O)[O-])c1` stands inactive: 4.39%; under `O=C(NCC1(N2CCCCC2)CCCCC1)c1ccc(OC(F)F)cc1`, inactive: 1.93%.
Under `CC(C)(C)n1nnnc1C(c1ccccc1OC(F)(F)F)N1CCC(n2c(=O)[nH]c3ccccc32)CC1` (stereo not drawn) stands inactive: -5.87%; under `O=C(NCC1(N2CCOCC2)CCCCC1)c1cc(=O)[nH]c2ccccc12`, inactive: 12%; under `COc1cc(C(=O)NCC2(N3CCCCC3)CCCCC2)ccc1OC(F)F`, inactive: -6.49%.
Under `CC(C)c1ccc(C(=O)NCC2(N3CCOCC3)CCCCC2)cc1` stands inactive: -7.01%; under `COc1ccc(NC2CCN(C(=O)OC(C)(C)C)CC2)cc1`, inactive: -2.37%; under `CN1CCN(CCOC(=O)C(O)(c2ccccc2)c2ccccc2)CC1`, inactive: 5%.
As for `CCCCn1nnnc1C(c1cccc2ccccc12)N1CCC(n2c(=O)[nH]c3ccccc32)CC1` (stereo not drawn), the activity change, negative = inhibition was inactive: -7.76%.
Under `O=[N+]([O-])c1cc([N+](=O)[O-])c(NCC2CCS(=O)(=O)C2)c([N+](=O)[O-])c1` (stereo not drawn) stands inactive: -12.9%; under `O=C(NCC1(N2CCCCC2)CCCCC1)c1cccc(C(F)(F)F)c1`, inactive: -2.16%.
